Laboratory results published in PubChem BioAssay AID504651 (National Center for Advancing Translational Sciences (NCATS), 2011).
Where “and” joins values, the source holds several entries; their conditions need not be identical. Equal values may be shown once. Only a part is listed here, and it is no random draw. Calls of active or inactive are those of the source. Rule as the data show it: active = potentiation above about 30%; inactive = the rest.

By UniProt entry, the sequences of proteins in these tests, tags left out.
UniProt P21728, whole entry, looked up: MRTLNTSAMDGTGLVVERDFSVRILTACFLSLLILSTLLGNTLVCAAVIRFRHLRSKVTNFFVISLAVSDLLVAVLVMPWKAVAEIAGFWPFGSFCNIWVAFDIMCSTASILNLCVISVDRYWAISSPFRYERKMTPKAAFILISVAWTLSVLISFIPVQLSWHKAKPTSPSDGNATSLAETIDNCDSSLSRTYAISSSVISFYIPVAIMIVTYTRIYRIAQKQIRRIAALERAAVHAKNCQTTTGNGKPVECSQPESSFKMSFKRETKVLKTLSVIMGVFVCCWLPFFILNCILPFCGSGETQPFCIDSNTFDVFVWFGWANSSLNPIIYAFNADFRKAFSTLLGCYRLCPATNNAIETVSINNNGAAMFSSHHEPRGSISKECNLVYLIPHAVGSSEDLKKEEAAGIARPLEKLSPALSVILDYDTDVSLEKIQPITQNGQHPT

biological target: D(1A) dopamine receptor (Homo sapiens) (UniProt P21728); experiment: Potentiators of Human D1 Dopamine Receptor: qHTS; conditions: HEK293 TREx D1 cells, calcium flux, dopamine EC20 potentiation; at 10 µM; stronger effect = higher value; also: 0% is about no effect
Source text: Dopamine receptors (DARs) are involved in the etiology and/or therapy of a number of neuropsychiatric and endocrine disorders. For instance, all receptor-based antiparkinsonian drugs work via stimulating the D1 DAR subtype whereas all FDA-approved antipsychotic agents are antagonists of this receptor. […] There are three different types of allosteric modulators that we are seeking, two of which will stimulate or augment receptor signaling, allosteric agonists and potentiators, while the third, allosteric antagonists, will attenuate receptor signaling. The present primary screening assay measures compound potentiation of an EC20 dopamine response by tracking calcium flux in a […], inducible Hek293 Trex D1 cell line.
NIH Chemical Genomics Center [NCGC]
NIH Molecular Libraries Probe Centers Network [MLPCN]
Assay Submitter (PI): David Sibley
Freshly passaged cells are plated in 1536 well black, clear bottom plates at a density of 4000 cells/well in 3 ul of complete media containing 1x tetracycline inducer. After an overnight incubation at 30 C in 5% CO2, cells are loaded with 2 ul of the no wash Calcium Assay Kit (ABD Bioquest) and incubated at room temperature for 30 to 90 minutes. A 10 cycle (1 second/cycle) baseline measurement is taken and then the FDSS online 1536 pintool delivers 23 nl of compound library (as well as dopamine controls) to the plate. The plate is measured for kinetically at 1 cycle/sec for 180 seconds and is considered to be the agonist portion of the assay (eg, compounds which activate a positive calcium response during this portion are flagged as potential agonists). Following the 180 second read, 1 ul of an EC20 of dopamine is delivered by an onboard pipette head. Measurements are taken kinetically for an additional 180 seconds.

Compound	potentiation
CN(C)C1(CNC(=O)c2ccc(Cl)c(S(N)(=O)=O)c2)CCCCC1	inactive: -2.1%
O=P(Nc1ccccn1)(c1ccc(Br)cc1)c1ccc(Br)cc1	inactive: 7.09%
C[C@H]1OP(=O)(Oc2ccccc2)[C@H](O)[C@H](O)[C@H]1N=[N+]=[N-] (stereo not given in full)	inactive: -6.5%
O=P(Nc1nc2ccccc2s1)(c1ccccc1)c1ccccc1	inactive: -1.45%
CC(=O)NC(SC(=S)N(C)C)C(Cl)(Cl)Cl (stereo not given)	inactive: -0.6%
O=[N+]([O-])c1ncn(CCn2cnc([N+](=O)[O-])n2)n1	inactive: -6.99%
O=[N+]([O-])c1ccc(O)c(/C=N/Nc2ccc([N+](=O)[O-])cc2[N+](=O)[O-])c1	inactive: 0.2%
O=[As](O)(c1ccccc1)c1ccc(O)cc1	inactive: 0.3%
C(Cc1nn[nH]n1)Cc1nn[nH]n1	inactive: -2.05%
Nc1ccc([As](=O)(O)c2ccc([N+](=O)[O-])cc2)cc1	inactive: 4.6%
O=C(OC1CN2CCC1CC2)c1cccc(Cl)c1 (stereo not given)	inactive: 1.4%
O=P(Nc1nccs1)(c1ccccc1)c1ccccc1	inactive: 12.2%
CC(C)C(=O)NC(Sc1ccccc1)C(Cl)(Cl)Cl (stereo not given)	inactive: -13.9%
c1nnnn1CCn1cnnn1	inactive: -5.85%
CCOc1ccc(C2=NCC(CBr)S2)cc1 (stereo not given)	inactive: 0.95%
O=P1(Nc2nc3ccc(Cl)cc3s2)COc2ccccc2O1 (stereo not given)	inactive: -5.15%
CC(C)(C)C(=O)NC(Sc1ccccc1)C(Cl)(Cl)Cl (stereo not given)	inactive: -1.5%
CC(=O)c1ccc(N2CC2c2ccncc2)cc1 (stereo not given)	inactive: 17.1%
C[C@H]1OP(=O)(Oc2ccccc2)C[C@@H]2O[C@@H]21 (stereo not given in full)	inactive: -4.6%
C[C@@H]1C=CCP(=O)(Oc2ccccc2)O1 (stereo not given in full)	inactive: -7%
Cc1ccccc1CN(C)C(=O)COC(=O)C(O)(c1ccccc1)c1ccccc1	inactive: -3.75%
CC(=O)Nc1ccc(Oc2c([N+](=O)[O-])cc([N+](=O)[O-])cc2[N+](=O)[O-])cc1	inactive: -4.4%
CC(=O)Nc1ccc([As](=O)(O)O)c(O)c1	inactive: 0.05%
O=C(NC1CCS(=O)(=O)C1)NP(=S)(Oc1ccccc1)Oc1ccccc1 (stereo not given)	inactive: -1.43%
CCNC(=S)/N=C(\N)N[N+](=O)[O-]	inactive: 2.43%

Compound	potentiation
Cc1ccc(NP(=O)(Oc2cccc(C)c2)Oc2cccc(C)c2)nc1	inactive: -5%
CCOC(=O)NC(Sc1ccccc1)C(Cl)(Cl)Cl (stereo not given)	inactive: -2.55%
c1ccc(-c2nn[nH]n2)c(-c2nn[nH]n2)c1	inactive: -2.75%
CC(=O)NC(SC(=S)N(CC(C)C)CC(C)C)C(Cl)(Cl)Cl (stereo not given)	inactive: 2.8%
Cc1ccc(OP(=O)(Nc2ccccn2)Oc2ccc(C)cc2)cc1	inactive: -3.75%
COC(=O)c1cc2c(s1)N=C(c1ccccc1)N(C)P2(=O)N1CCOCC1 (stereo not given)	inactive: -10.2%
CCC(=O)N1C2C3N(C(=O)CC)C1C1N(C(=O)CC)C(C(N1C(=O)CC)N3C(=O)CC)N2C(=O)CC	inactive: -3.35%
O=C(OC1CN2CCC1CC2)c1ccccc1 (stereo not given)	inactive: -1.25%
O=c1c2cc([N+](=O)[O-])ccc2[nH]c2c([N+](=O)[O-])cc([N+](=O)[O-])cc12	inactive: -7.4%
CN(C)C(=O)Oc1noc2ccccc12	inactive: 1.65%
Cc1ccccc1OP(=O)(Nc1ccccn1)Oc1ccccc1C	inactive: -10.3%
CC(=O)Nc1ccc([As](=O)(O)O)cc1	inactive: -0.8%
O=C(O)c1ccccc1[As](=O)(O)O	inactive: -5.45%
O=P(Nc1nc2ccc(Cl)cc2s1)(c1ccccc1)c1ccccc1	inactive: -4.5%
Cc1ccc(NP(=O)(Oc2ccccc2F)Oc2ccccc2F)nc1	inactive: -4.15%
Cc1cc(SC(NC(=O)c2ccc(F)cc2)C(Cl)(Cl)Cl)ncn1 (stereo not given)	inactive: -1.05%
CCOP(=O)(Nc1ccccc1)OCC	inactive: -3.27% and inactive: -2.45%
O=[N+]([O-])c1cc([N+](=O)[O-])c(CCN2CCOCC2)c([N+](=O)[O-])c1	inactive: 2.6%
CCN(N=Nc1nonc1N)c1nonc1N	inactive: 3.6%
Nc1cccc2ccc([As](=O)(O)O)cc12	inactive: -8.35%
NC(=O)c1cc([N+](=O)[O-])cc([N+](=O)[O-])c1N	inactive: -1.35%
Cc1ccc(N/C(=N/P(=O)(N2CCOCC2)N2CCOCC2)N2CCOCC2)cc1	inactive: -5.25%
CN(C(=O)Cc1ccc(Cl)c(Cl)c1)[C@H]1CCCC[C@H]1N1CCCC1	inactive: 3.2%
Cc1ccc(OP(=O)(Nc2nccs2)Oc2ccc(C)cc2)cc1	inactive: 0.75%
COc1ccccc1OP(=O)(Nc1ccc(C)cn1)Oc1ccccc1OC	inactive: 0.2%

Compound	potentiation
CN1CCCC(OC(=O)C(c2ccccc2)c2ccccc2)C1 (stereo not given)	inactive: 4.7%
Clc1ccc(Cl)c(NC2=NCC(CBr)S2)c1 (stereo not given)	inactive: -0.85%
Nc1cc(N)c2nonc2c1[N+](=O)[O-]	inactive: -4.85%
O=C(NC(Sc1ccncn1)C(Cl)(Cl)Cl)c1ccccc1 (stereo not given)	inactive: -8.9%
Cc1c2non([O-])c-2c(C)[n+](=O)[n+]1[O-]	inactive: 1.6%
Oc1ccccc1CNc1ccccn1	inactive: -4%
COc1ccc(C2=NCC(CBr)S2)cc1 (stereo not given)	inactive: -8.15%
CC(=O)N1C2C3N(C(C)=O)C1C1N(C(C)=O)C(C(N1C(C)=O)N3C(C)=O)N2C(C)=O	inactive: 2.38%
O=[N+]([O-])c1cccc2n[nH]nc12	inactive: -2.05%
O=[N+]([O-])c1cc([N+](=O)[O-])c(CCNc2ccccc2)c([N+](=O)[O-])c1	inactive: -4.95%
CCc1nc2c(n1)c1c(non1O)c1c2no[n+]1[O-]	inactive: -2.25%
Cc1ccc(NP(=O)(Oc2ccccc2)Oc2ccccc2)nc1	inactive: -0.85%
C[N+]1=C2C=CC=CC=C2SC12C([N+](=O)[O-])=CC([N+](=O)[O-])=C[C-]2[N+](=O)[O-] (stereo not given)	inactive: -3.4%
Nc1ccc([As](=O)(O)c2ccc(N)cc2)cc1	inactive: -5%
CCN(/C(=N/P(=O)(N1CCOCC1)N1CCOCC1)N1CCOCC1)c1ccc(OC)cc1	inactive: -5.3%
CN(C)C(=O)OCCc1n(C)cc[n+]1C	inactive: -2.4%
CC(C)=N/N=C(\N)N[N+](=O)[O-]	inactive: -1.55%
CC1CCN(C(=O)Oc2c(Cl)cc(Cl)c3cccnc23)CC1	inactive: -7.5%
O=C(Nc1cc([As](=O)(O)O)ccc1O)c1ccccc1	inactive: 0.05%
CC(C)(C)C(=O)NC(Sc1ccncn1)C(Cl)(Cl)Cl (stereo not given)	inactive: 1.6%
O=[N+]([O-])c1ncn(CCn2ncnc2[N+](=O)[O-])n1	inactive: -4.75%
O=[N+]([O-])c1cccc(NC2=NCC(CBr)S2)c1 (stereo not given)	inactive: -5.15%
O=C(O)CNc1ccc([As](=O)(O)O)cc1	inactive: 5.55%
CCOC(=O)Nc1ccc([As](=O)(O)O)c(O)c1	inactive: 1.6%
Cc1cc(SC(NC(=O)c2ccccc2)C(Cl)(Cl)Cl)nc(C(C)C)n1 (stereo not given)	inactive: -9.3%

Compound	potentiation
CCCCOc1ccc(C(=O)NCC2(N3CCCCC3)CCCCC2)cc1OC	inactive: 5.75%
CCOC(=O)Nc1cccc([As](=O)(O)O)c1	inactive: 0.3%
O=[N+]([O-])c1ccc(Nc2ccc(Oc3ccc([N+](=O)[O-])cc3[N+](=O)[O-])cc2)c([N+](=O)[O-])c1	inactive: 0.3%
Cc1cc(SC(NC=O)C(Cl)(Cl)Cl)ncn1 (stereo not given)	inactive: 1.75%
O=P(Nc1ccccn1)(c1cccc2ccccc12)c1cccc2ccccc12	inactive: 4.59%
COP1(=S)c2c(C)nn(CCC#N)c2N=C(c2ccc(F)cc2)N1C (stereo not given)	inactive: 4.3%
O=C(Nc1ccncc1[N+](=O)[O-])c1ccc([N+](=O)[O-])cc1[N+](=O)[O-]	inactive: 1.45%
O=C(COc1ccccc1)OC1CN2CCC1CC2 (stereo not given)	inactive: 0.35%
CCOC(=O)c1ccc(NC(=O)C(C)(CCl)SC)cc1 (stereo not given)	inactive: -4.45%
O=C(OC1CN2CCC1CC2)c1cccc([N+](=O)[O-])c1 (stereo not given)	inactive: 1.5%
CCOP(=O)(Nc1cccc2cccnc12)OCC	inactive: 4%
CCC(C)N(CC(C)C)C(=S)SC(NC(C)=O)C(Cl)(Cl)Cl (stereo not given)	inactive: 11.1%
Cc1cc(=O)[nH]c(N[N+](=O)[O-])n1	inactive: -12.2%
O=C(OC1CN2CCC1CC2)C12CC3CC(CC(C3)C1)C2 (stereo not given)	inactive: -8.8%
Cc1c2c(nc3ccccc13)SC(C(Cl)Cl)C2 (stereo not given)	inactive: -5.15%
COc1cc(I)ccc1[As](=O)(O)O	inactive: -5%
COc1ccc2nc(NP(=O)(c3ccccc3)c3ccccc3)sc2c1	inactive: -4.85%
COc1ccc(N/C(=N/P(=O)(N2CCOCC2)N2CCOCC2)N2CCOCC2)cc1	inactive: -2.6%
COc1cc(C(=O)NCC2(N3CCOCC3)CCCCC2)ccc1OCC(C)C	inactive: -4.85%
O=[As](O)(c1ccc(O)cc1)c1ccccc1O	inactive: -4.5%
C[As](=O)(O)c1cccc(C(=O)O)c1	inactive: 4.2%
Cc1ccc2nc3c(c(C)c2c1)CC(C(Cl)Cl)S3 (stereo not given)	inactive: -4%
Cc1ccc(OP(=O)(Nc2ccc([N+](=O)[O-])cn2)Oc2ccc(C)cc2)cc1	inactive: 2.8%
CC(C)c1ccc(OP(=O)(Nc2ccccn2)Oc2ccccc2F)cc1 (stereo not given)	inactive: 0.85%
ClCCSc1nnc(-c2cccnc2)o1	inactive: -4.35%
